{"source": "patent US20070027634A1", "about": "“Molecular hepatotoxicology modeling” (priority 2002, published 2007)", "origin": "cited, not measured here", "key": {"[1]": {"conditions": "rats; cited from earlier work"}, "[2]": {"conditions": "humans, poisoning; cited from earlier work"}}, "data": [{"smiles": "S=C=Nc1cccc2ccccc12", "note": "[ANIT, α-naphthylisothiocyanate]", "values": [{"measurement": "liver finding (pathology)", "setting": "[1]", "value": "neutrophil-dependent necrosis of bile duct epithelial cells (BDECs) and hepatic parenchymal cells"}]}, {"smiles": "ClC(Cl)Cl", "note": "[chloroform, Chloroform]", "values": [{"measurement": "serum lactate dehydrogenase level", "setting": "[2]", "value": "decreased levels"}]}]}
